The text below walks through data of patent US20190144503A1 (REGENTS OF THE UNIVERSITY OF MINNESOTA, published 2019).

This assay concerns the target recombinant His-tagged human carbonic anhydrase 9 (human, UniProt Q16790 38-414). Briefly: binding of the purified clone to CA9 (FIG. 14A); method not stated.

B1: Fn-AAZ clone 0.3.10 (fibronectin type III domain of SEQ ID NO: 3 conjugated to acetazolamide) (designed binder)
chain: MASSSDSPRNLEVTNATPNSLTISWDSYLDCAYYYRITYGETGGNSPSQEFTVPGYTNSVTISGLKPGQDYTITVYAVASSNDVSNPISINYRTEIDKPSQGS
modifications: acetazolamide (AAZ) conjugated through a maleimide-PEG linker to the single cysteine; PEG length not stated for this clone
notes: Expressed and purified clone, conjugated with maleimide-PEG-AAZ; also called first Fn-AAZ clone; first Fn-AAZ conjugate
Turning to B1, the “fold higher affinity than the Fn not conjugated to AAZ” value was found to be 10 fold.
